Experimental data from patent publication US8791099B2, “Transition metal complexes of corroles for preventing cardiovascular diseases or disorders” (Technion Research and Development Foundation Ltd., priority 2007, dated 2014).

System: LDL
Assay: Oxidation of LDL by peroxynitrite (SIN-1)
Conditions: 5 μM corrole, 250 μM SIN-1, absorbance at 234 nm

Row | SMILES | Effect on SIN-1 induced conjugated dienes formation in LDL
1 | O=S(=O)(O)c1cc2[n]3c1C(c1c(F)c(F)c(F)c(F)c1F)=C1C=CC4=[N+]1[Fe-]31[n]3c(cc(S(=O)(=O)O)c3-2)C(c2c(F)c(F)c(F)c(F)c2F)=c2ccc([n]21)=C4c1c(F)c(F)c(F)c(F)c1F (centres unmarked) [1-Fe, 5,10,15-tris(pentafluorophenyl)-2,17-bis(sulfonic acid)-corrolato iron(III)] | totally preventing conjugated dienes formation
2 | O=S(=O)(O)c1cc2[n]3c1C(c1c(F)c(F)c(F)c(F)c1F)=C1C=CC4=[N+]1[Mn-]31[n]3c(cc(S(=O)(=O)O)c3-2)C(c2c(F)c(F)c(F)c(F)c2F)=c2ccc([n]21)=C4c1c(F)c(F)c(F)c(F)c1F (centres unmarked) [1-Mn, 5,10,15-tris(pentafluorophenyl)-2,17-bis(sulfonic acid)-corrolato manganese(III)] | pro-oxidant
